Results from publication PMC4042408 (ACS chemical biology, 2013).

Protein sequences, listed by entry. Tags and fused reporters are not part of them.
UniProt O08914, whole entry: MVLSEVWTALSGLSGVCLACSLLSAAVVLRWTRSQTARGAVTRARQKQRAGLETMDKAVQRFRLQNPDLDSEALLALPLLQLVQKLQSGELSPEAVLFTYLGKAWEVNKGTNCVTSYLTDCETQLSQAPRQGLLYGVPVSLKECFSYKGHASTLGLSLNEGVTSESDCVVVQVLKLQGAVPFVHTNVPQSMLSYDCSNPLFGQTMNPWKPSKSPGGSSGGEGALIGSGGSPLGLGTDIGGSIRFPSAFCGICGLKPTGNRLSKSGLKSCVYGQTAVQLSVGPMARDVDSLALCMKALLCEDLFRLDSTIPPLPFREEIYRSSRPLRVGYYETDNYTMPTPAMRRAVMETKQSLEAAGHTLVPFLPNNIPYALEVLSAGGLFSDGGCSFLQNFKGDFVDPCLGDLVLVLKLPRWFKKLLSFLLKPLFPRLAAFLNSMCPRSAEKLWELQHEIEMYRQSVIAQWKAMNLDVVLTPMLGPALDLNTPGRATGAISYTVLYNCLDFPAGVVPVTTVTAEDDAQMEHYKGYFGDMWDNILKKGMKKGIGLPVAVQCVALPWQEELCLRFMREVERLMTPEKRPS

Biological target: FAAH (Mus musculus, UniProt O08914)
Test: Gel-based competitive ABPP
Assay type: biochemical

CCOP(=O)(OCC)Oc1nc(Cl)c(Cl)cc1Cl [CPO, chlorpyrifos-oxon]
IC50 compared to that of ACHE: comparable
